# Results as given in patent US12465660B2, “Compositions and methods for cancer imaging and radiotherapy” (VECT-HORUS, priority 2017, dated 2025).
# Assays:
# [1] = system: Pk4a pancreatic cancer xenograft; conditions: mouse, in vivo
# Method: Gallium was obtained in ^68Ga^3+ form using a commercial TiO2-based ^68Ge/^68Ga generator (Obninsk). […] Animal studies were performed according to the protocols approved by the Aix-Marseille Ethic comity (Comity 14). Four week's old BALB/c Nude Mouse male were obtained from Charles River Inc. Mice were subcutaneously implanted between the shoulders with Pk4a cells (1×10^6) in 150 μL of complete medium. Mice were used for imaging experiments when the tumours reached a volume comprised between 700-1500 mm^3. Animals received the test substance by intravenous single bolus at dose of 10±4 MBq of ^68Ga-CH44 and ^68Ga-CH40. Mice (n=5 to 6) were implanted with Pk4a pancreatic cancer cells. On day 4 following implantation, the animals were administered intravenously at 24 hours interval with ^68 Ga-CH44 and ^68Ga-CH40, respectively. On day 12 post-implantation, the animals were administered intravenously with ^68Ga.-CH44 followed 24 hours later with ^68Ga-CH40. Groups (n=5 to 7) of nude mice were i.v. administered 10±4 MBq of ^68Ga-CH44 and PET/CT scans were acquired at 1 hour post injection (p.i.). PET and PET/CT studies were performed on a microPET/microCT rodent model scanner (nanoPET/CT®, Mediso). Anesthesia was induced with 5% isoflurane and maintained at 1.5%. […]
# [2] = system: NCI-H295R adrenal cancer xenograft; conditions: mouse, in vivo, iv
# Method: Gallium was obtained in ^68Ga^3+ form using a commercial TiO2-based ^68Ge/^68Ga generator (Obninsk). […] Animal studies were performed according to the protocols approved by the Aix-Marseille Ethic comity (Comity 14). Four weeks old BALB/c Nude Mouse male were obtained from Charles River Inc. Mice were implanted subcutaneously in the upper flanks with NCI-H295R cells (7×10^6) in 150 μL of complete medium containing 50% Matrigel (Corning). Mice were used for imaging experiments when the tumours reached a volume comprised between 700-1500 mm^3. Animals received the test substance by intravenous single bolus at dose of 10±4MBq of ^68Ga-CH44 or ^68Ga-CH40. Six mice were implanted with NCI-11295R adrenal cancer cells. On day 14 following implantation, the animals were administered intravenously at 24 hours interval with ^18F-FDG, ^68Ga-CH44 and ^68Ga-CH40, respectively. On days 32 post-implantation, the animals were administered intravenously with ^68Ga-CH44 followed 24 hours later with ^68Ga.-[…]. Following each administration, the biodistribution in the adrenal cancer xenograft and other tissues was assessed using PET-imaging. Groups (n=5-7) of nude mice were i.v. administered 10±4MBq of ^68Ga-CH44 and PET/CT scans were acquired at 1 h post injection (p.i.). PET and PET/CT studies were performed on a microPET/microCT rodent model scanner (nanoPET/CT®, Mediso). […]
substance,measurement,setting,value
^18F-FDG,accumulation in pancreatic tumour (PET),[1],no significant accumulation
same,accumulation at the tumour site (PET),[2],no significant accumulation
